Tested on: human sarcoma SA-22-0003PDX nude mouse model (malignant fibrous histiocytoma)
Format: in vivo, BALB/c nude mouse
Details: after 5 weeks of administration; anlotinib 3 mg/kg/d intragastric daily, epirubicin 2.5 mg/kg tail vein once weekly; blank control 2.62±0.64 g

SMILES | average tumor weight
COc1cccc2c1C(=O)c1c(O)c3c(c(O)c1C2=O)C[C@@](O)(C(=O)CO)C[C@@H]3O[C@H]1C[C@H](N)[C@@H](O)[C@H](C)O1 [epirubicin] | 1.20 ± 0.42 g
COc1cc2c(Oc3ccc4[nH]c(C)cc4c3F)ccnc2cc1OCC1(N)CC1 [anlotinib, 1-[[[4-(4-fluoro-2-methyl-1H-indol-5-yl)oxy-6-methoxyquinolin-7-yl]oxy]methyl]cyclopropylamine] | 0.71 ± 0.36 g
